Experimental data as given in patent US7922998B2, “Gastrin releasing peptide compounds” (Bracco Imaging S.p.A., priority 2003, dated 2011).
pIC50: −log10 of the molar value.

The chains behind the UniProt entries cited, without tags or fusion partners. Where a name states a change or a piece, a line headed by the entry shows the natural chain unless it says otherwise.
UniProt P30550: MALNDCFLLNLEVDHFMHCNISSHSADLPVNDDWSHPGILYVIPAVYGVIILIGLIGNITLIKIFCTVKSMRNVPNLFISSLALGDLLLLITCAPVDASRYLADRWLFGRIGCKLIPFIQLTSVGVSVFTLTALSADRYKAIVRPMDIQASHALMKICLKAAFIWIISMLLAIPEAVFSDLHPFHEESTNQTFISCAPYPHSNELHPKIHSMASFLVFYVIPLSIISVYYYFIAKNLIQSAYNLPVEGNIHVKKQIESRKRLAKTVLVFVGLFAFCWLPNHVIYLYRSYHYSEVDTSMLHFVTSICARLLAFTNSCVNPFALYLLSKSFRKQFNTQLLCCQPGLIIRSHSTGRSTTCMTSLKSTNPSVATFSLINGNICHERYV

Experiments:
GRP-R [1] = target: T1, GRP-R (Homo sapiens, UniProt P30550); assay: In vitro competition binding assay with 125I-BBN for GRP-R in PC3 cells (Example XLIII; also the PC3 part of Example LX); details: for pIC50: read-out: IC50; for IC50: Table 10, competition with 125I-BBN, read-out: IC50 (nM) 125I-BBN/PC3
T1 construct: host or cells: PC3 human prostate cancer cells, intact and plated

[2] = system: PC3 tumor-bearing nude mice
[3] = system: human PC-3 nude mouse model; format: in vivo; details: 177Lu-labeled compound, i.v. tail vein, n=4
GRP-R [4] = target: T1, GRP-R; assay: Competition assay of modified BBN analogs with 125I-BBN for GRP-R in PC3 cells (Example LXI); format: binding; details: for pIC50: Table 13, competition with 125I-BBN for GRP-R in PC3 cells, read-out: IC50; for IC50: read-out: IC50 PC3/GRP-R
[5] = 177Lu-labeled, 200 μCi/kg i.v., 1 hr
[6] = 177Lu-labeled, 200 μCi/kg i.v., 24 hr
[7] = Table 2, concentration of compound to inhibit 50% binding of iodinated bombesin to a GRP receptor on cells, unit inferred
[8] = concentration of compounds to inhibit 50% binding of iodinated bombesin to a GRP receptor on cells

With “DO3A-monoamide-8-amino-octanoic acid-BBN (7-14) [reference compound]” the pIC50 (GRP-R [1]; competition binding curves FIGS. 14A-B, 125I-BBN, PC3 cells, 1 h at 4° C.) was 8.30, the “Kidneys, 1 hr” value [2, 5] was 7.65 % ID/g and the “Pancreas, 1 hr” value [2, 5] was 28.60 % ID/g. The “Tumor, 1 hr” value [2, 5] was 3.66 % ID/g, the “Kidneys, 24 hr” value [2, 6] was 1.03 % ID/g and the “Pancreas, 24 hr” value [2, 6] was 1.01 % ID/g. For the same substance, the “Tumor, 24 hr” value [2, 6] was 1.52 % ID/g.
Work on “N-[2-S-[[[[[12α-Hydroxy-17α-(1-methyl-3-carboxypropyl)etiocholan-3,3-carbamoylmethoxyethoxyethoxyacetyl]-amino-6-[4,7,10-tris(carboxymethyl)-1,4,7,10-tetraazacyclododec-1-yl]acetyl]amino]acetyl]amino]hexanoyl-L-glutaminyl-L-tryptophyl-L-alanyl-L-valyl-glycyl-L-histidyl-L-leucyl-L-methioninamide [Compound L66]” yielded a pIC50 (GRP-R [1]; [7]) of less than 7.30.
For “N-[4-[[4-Bis[2-[[[4,7,10-tris(carboxymethyl)-1,4,7,10-tetraazacyclododec-1-yl]acetyl]amino]ethyl]amino-1,4-dioxobutyl]amino]benzoyl]-L-glutaminyl-L-tryptophyl-L-alanyl-L-valyl-glycyl-L-histidyl-L-leucyl-L-methioninamide [Compound L244]”, the pIC50 (GRP-R [1]; [8]) was less than 7.30.
“N-[4-[[[[4,7,10-Tris(carboxymethyl)-1,4,7,10 tetraazacyclododec-1-yl]acetyl]glycyl]amino]-L-Lysinyl-(3,6,9)-trioxaundecane-1,11-dicarboxylic acid-3,7-dideoxy-3-aminocholic acid)-L-arginyl-L-glutaminyl-L-triptophyl-L-alanyl-L-valyl-glycyl-L-histidyl-L-leucyl-L-methioninamide [Compound L65]” gave a pIC50 (GRP-R [1]; [7]) of less than 7.30.
“N-[4-[[[[[4,7,10-Tris(carboxymethyl)-1,4,7,10-tetraazacyclododec-1-yl]acetyl]amino]acetyl]amino]benzoyl]-L-glutaminyl-L-tryptophyl-L-alanyl-L-valyl-glycyl-L-histidyl-L-leucyl-L-methioninamide [Compound L70]” was tested, and the “Blood 1 h % ID” value ([3]; blood pool, 1 h post injection) was 1.23 ± 0.58 % ID, the “Blood 24 h % ID” value ([3]; blood pool, 24 h post injection) was 0.02 ± 0.00 % ID and the “Blood 7 d % ID” value ([3]; blood pool, 7 d post injection) was 0.00 ± 0.00 % ID. For the same substance, the “Carcass 7 d % ID/g” value ([3]; carcass, 7 d post injection) was 0.17 ± 0.01 % ID/g, the “Femur 7 d % ID/g” value ([3]; femur, 7 d post injection) was 0.06 ± 0.03 % ID/g and the “Tumor 1 h % ID/g” value ([3]; tumor, 1 h post injection) was 5.86 ± 1.91 % ID/g. The “Tumor 24 h % ID/g” value ([3]; tumor, 24 h post injection) was 1.82 ± 0.06 % ID/g, the “Tumor 7 d % LD/g” value ([3]; tumor, 7 d post injection) was 0.34 ± 0.16 % LD/g and the “Urine/Blad 1 h % ID” value ([3]; urine combined with bladder, 1 h post injection) was 43.4 ± 4.3 % ID. For the same substance, the “Blood, 1 hr” value [2, 5] was 0.33 % ID/g, the “Kidneys, 1 hr” value [2, 5] was 6.01 % ID/g and the “Liver, 1 hr” value [2, 5] was 0.77 % ID/g. For the same substance, the “Pancreas, 1 hr” value [2, 5] was 42.34 % ID/g, the “Tumor, 1 hr” value [2, 5] was 6.42 % ID/g and the “Blood, 24 hr” value [2, 6] was 0.03 % ID/g. For the same substance, the “Kidneys, 24 hr” value [2, 6] was 2.31 % ID/g, the “Liver, 24 hr” value [2, 6] was 0.10 % ID/g and the “Pancreas, 24 hr” value [2, 6] was 40.24 % ID/g. The “Tumor, 24 hr” value [2, 6] was 3.50 % ID/g, the “uptake in the mouse pancreas compared with control” value ([2]; in words) was “much higher” and the “uptake in the tumor compared with control” value ([2]; in words, 1 and 24 h) was “much higher”.
In the case of “N-[(3β,5β,12α)-3-[[[4,7,10-Tris(carboxymethyl)-1,4,7,10-tetraazacyclododec-1-yl]acetyl]amino]-glycyl-4-aminobenzoyl-D-phenylalanyl-L-glutaminyl-L-tryptophyl-L-alanyl-L-valyl-glycyl-L-histidyl-L-leucyl-L-methioninamide [Compound L214]”, the pIC50 (GRP-R [4]) was 7.74 and the IC50 (GRP-R [4]; Table 16, unit not in the table, nM per b770/Table 13) was 18 nM.
“N-[(3β,5β,12α)-3-[[[4,7,10-Tris(carboxymethyl)-1,4,7,10-tetraazacyclododec-1-yl]acetyl]amino]-glycyl-4-aminobenzoyl-L-glutaminyl-L-tryptophyl-L-alanyl-glycyl-L-histidyl-L-phenylalanyl-L-leucinamide [Compound L224]” was tested, and the IC50 (GRP-R [4]; Table 17, nM in the table's title) was 52 nM.
“N-[(3β,5β,12α)-3-[[[4,7,10-Tris(carboxymethyl)-1,4,7,10-tetraazacyclododec-1-yl]acetyl]amino]-glycyl-4-aminobenzoyl-L-leucyl-L-tryptophyl-L-alanyl-L-threonyl]-glycyl-L-histidyl-L-phenylalanyl-L-methioninamide [Compound L227]” showed an IC50 (GRP-R [1]; PC3 cells) of 28 nM, a pIC50 (GRP-R [4]) of 7.41 and an IC50 (GRP-R [4]; Table 14, unit not in the table, nM per b770/Tables 10 and 13) of 28 nM.
For “N-[(3β,5β,12α)-3-[[[[[4,7,10-Tris(carboxymethyl)-1,4,7,10-tetraazacyclododec-1-yl]acetyl]amino]acetyl]amino]-[3′-amino-biphenyl-3-carboxyl]-L-glutaminyl-L-tryptophyl-L-alanyl-L-valyl-glycyl-L-histidyl-L-leucyl-L-methioninamide [Compound L207]”, the IC50 (GRP-R [1]; PC3 cells) was 3 nM and the pIC50 (GRP-R [1]; [8]) was 8.60.
“Pglu-Q-Lys(DO3A-monoamide-G-4-aminobenzoic acid)-LGNQWAVGHLM-NH2 [Compound L218]” was tested, and the pIC50 (GRP-R [4]) was 7.28.
